Results on one compound are retold here after PubChem BioAssay AID552 (SRMLSC, 2006).

This is a selection; strong and weak results do not stand in their true shares. Some of these compounds have results that are not shown, active ones among them. Active and inactive are the calls of the source. Cut-off read from the data, not from the text of the source: active = inhibition above about 40%; inactive = the rest.

This assay is described as follows: antibacterial activity on E. coli BW25113 – strain BW25113 wild type, absorbance readout, primary screen (AID 552).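 Note: bacteria exposed to compound for 20 hours at 37 °C.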 As to conditions: E. coli BW25113 growth inhibition, OD600; at 10 µM; active compounds read high. The gist of the method:
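Assay system: Bacterial strain in a whole-cell growth screen | Amount: Inoculum from a 1:1000 dilution of a 1.5 h subculture | Detection: Absorbance at 615 nm as a measure of bacterial growth | Timing: 20 h exposure, 37 °C | Buffer or medium: LB plus kanamycin 50 µg/mL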
One may read the inhibition as the drop in the measured response relative to a control, in per cent. Turning to `O=C(OC1CN2CCC1CC2)C(CO)(c1ccccc1)c1ccccc1` (stereo unspecified), the inhibition was inactive: -3.4%.
